Measurements reported in PubChem BioAssay AID743255 (National Center for Advancing Translational Sciences (NCATS), 2014).
This is a selection; strong and weak results do not stand in their true shares. Records with an inconclusive call do not appear. Some structures show a salt or complex split into parts, the way the source records it. Calls of active or inactive are those of the source. Calls come from the whole dose curve; as a rule, active = well fitted inhibition curve with a large enough effect; inconclusive = small, poorly fitted or top-dose-only effect; inactive = no such curve, though single readings can be large or run the other way.
% is set by controls: 0 for no effect and ±100 for the full control effect.
Note: nearly all actives have a fitted effect of over 60% in size.

Chains of the proteins cited; added tags and fusions are not shown.
UniProt O94782, whole entry, looked up: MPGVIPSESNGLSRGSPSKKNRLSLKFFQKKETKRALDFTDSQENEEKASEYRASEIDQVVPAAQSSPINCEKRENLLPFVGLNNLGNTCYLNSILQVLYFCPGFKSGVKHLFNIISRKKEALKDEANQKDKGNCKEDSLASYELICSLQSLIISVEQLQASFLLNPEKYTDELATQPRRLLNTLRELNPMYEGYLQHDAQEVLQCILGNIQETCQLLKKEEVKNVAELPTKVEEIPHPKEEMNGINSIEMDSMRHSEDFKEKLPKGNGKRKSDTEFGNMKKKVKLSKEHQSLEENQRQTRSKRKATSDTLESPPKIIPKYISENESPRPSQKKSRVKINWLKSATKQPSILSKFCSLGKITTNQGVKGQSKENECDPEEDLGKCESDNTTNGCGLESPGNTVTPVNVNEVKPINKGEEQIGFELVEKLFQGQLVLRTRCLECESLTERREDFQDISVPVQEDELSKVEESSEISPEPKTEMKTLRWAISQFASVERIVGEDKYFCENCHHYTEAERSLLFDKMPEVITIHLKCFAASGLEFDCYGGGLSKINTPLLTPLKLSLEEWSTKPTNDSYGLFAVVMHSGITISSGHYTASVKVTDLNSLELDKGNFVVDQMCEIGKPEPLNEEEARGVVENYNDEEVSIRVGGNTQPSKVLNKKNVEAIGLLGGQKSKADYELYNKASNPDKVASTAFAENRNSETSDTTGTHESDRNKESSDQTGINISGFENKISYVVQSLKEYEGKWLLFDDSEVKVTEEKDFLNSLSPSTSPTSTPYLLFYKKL

What follows are compounds tested against Ubiquitin carboxyl-terminal hydrolase 1 (Homo sapiens) (UniProt O94782) (assay: Inhibitors of USP1/UAF1: Primary Screen). Details: recombinant USP1/UAF1, Ub-Rhodamine cleavage fluorescence; at 57.1 µM (top of the series).
Method in brief: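 USP1/UAF1 complex at 1 nM was preincubated with compound for 15 min at room temperature, then Ub-Rho substrate (150nM final) was added. Fluorescence (480/540 nm) was read kinetically, 6 reads every 60 seconds.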
CCCCOc1ccccc1C(=O)NCC1(N2CCOCC2)CCCCC1 was tested, and the activity change, negative = inhibition was inactive: -11.9%. In the case of CCCOc1ccc(C(=O)NCC2(N(C)C)CCCCC2)cc1OC, the activity change, negative = inhibition is reported as inactive: -11.8%. With O=C(NCC1(N2CCOCC2)CCCCC1)c1ccccc1Br the activity change, negative = inhibition was inactive: -21.2%. O=C(OC1CN2CCC1CC2)c1ccc([N+](=O)[O-])cc1 (stereo not drawn) was tested, and the activity change, negative = inhibition was inactive: -20%. In the case of O=C(NCC1(N2CCCCC2)CCCCC1)c1cncc(Br)c1, the activity change, negative = inhibition is reported as inactive: -9.03%. COc1ccc2c(c1O)-c1c(O)c(OC)cc3c1[C@H](C2)[N+](C)(C)CC3.O=[N+]([O-])c1cc([N+](=O)[O-])c([O-])c([N+](=O)[O-])c1[O-] was tested, and the activity change, negative = inhibition was inactive: -30.6%. CN1CCC(Nc2cccc(F)c2)CC1 was tested, and the activity change, negative = inhibition was inactive: -14.6%. For Cc1cccc(NC2(C#N)CCN(Cc3ccccc3)CC2)c1, the activity change, negative = inhibition was inactive: -10.1%. COc1ccc(C(=O)NCC2(N3CCCCC3)CCCCC2)cc1 was tested, and the activity change, negative = inhibition was inactive: -8.19%. For COc1ccc(C(=O)NCC2(N3CCCCC3)CCCCC2)c(OC)c1OC, the activity change, negative = inhibition was inactive: -1.64%. For CC(C)(C)OC(=O)N1CCC(N(C(=O)c2ccccc2)c2ccc(F)cc2)CC1, the activity change, negative = inhibition was inactive: -23.5%. For O=C(NCC1(N2CCCCC2)CCCCC1)c1ccc(=O)[nH]c1, the activity change, negative = inhibition was inactive: -18.7%. With O=C(NCC1(N2CCCCC2)CCCCC1)c1cccs1 the activity change, negative = inhibition was inactive: -1.86%. O=C(OC1CN2CCC1CC2)C1c2ccccc2Oc2ccccc21 (stereo not drawn) was tested, and the activity change, negative = inhibition was inactive: -18.3%. In the case of O=C(NCC1(N2CCCCC2)CCCCC1)c1ccc(Cl)s1, the activity change, negative = inhibition is reported as inactive: -3.15%. For N#CC1(Nc2ccccc2)CCN(Cc2ccccc2)CC1, the activity change, negative = inhibition was inactive: 9.18%. For O=C1C(O)=C([N+](=O)[O-])C(=O)C(O)=C1[N+](=O)[O-], the activity change, negative = inhibition was inactive: 6.21%. For COc1ccc(Cl)cc1C(=O)NCC1(N2CCOCC2)CCCCC1, the activity change, negative = inhibition was inactive: -15.9%. For CCOC(=O)N1CCC(Nc2ccc(OC)cc2)CC1, the activity change, negative = inhibition was inactive: -10%. In the case of O=C(NCC1(N2CCCCC2)CCCCC1)c1ccc(Cl)nc1, the activity change, negative = inhibition is reported as inactive: -11.1%. Cc1cc(C)cc(N(C(=O)c2ccccc2)C2CCN(C(=O)OC(C)(C)C)CC2)c1 was tested, and the activity change, negative = inhibition was inactive: -22.6%. With O=C(NCC1(N2CCOCC2)CCCCC1)c1cc2ccccc2o1 the activity change, negative = inhibition was inactive: -4.85%. In the case of COc1ccccc1C(=O)NCC1(N2CCOCC2)CCCCC1, the activity change, negative = inhibition is reported as inactive: -14.8%. O=C(NCC1(N2CCCCC2)CCCCC1)c1ccc(F)cc1 was tested, and the activity change, negative = inhibition was inactive: -23.4%. For CCCCOc1ccc(C(=O)NCC2(N3CCOCC3)CCCCC2)cc1, the activity change, negative = inhibition was inactive: -6.73%. O=P1(N(CCCl)CCCl)SCCCS1 was tested, and the activity change, negative = inhibition was inactive: 4.31%. In the case of CCOC(=O)N1CCC(Nc2ccc(F)cc2)CC1, the activity change, negative = inhibition is reported as inactive: -19.3%. With COc1ccc(NC2CCN(CCc3ccccc3)CC2)c(OC)c1 the activity change, negative = inhibition was inactive: 3.85%. With O=C(NCC1(N2CCOCC2)CCCCC1)c1ccc(Cl)cc1 the activity change, negative = inhibition was inactive: -21.9%. With O=C1CCN(Cc2ccccc2)CC1 the activity change, negative = inhibition was inactive: -7.73%. For CCOc1ccc(C)cc1CN(CCCl)CCCl, the activity change, negative = inhibition was inactive: -7.13%. COc1cc(C(=O)NCC2(N(C)C)CCCCC2)ccc1OC(F)F was tested, and the activity change, negative = inhibition was inactive: -12.9%. In the case of CCOC(=O)N1CCC(Nc2cccc(C)c2)CC1, the activity change, negative = inhibition is reported as inactive: -17.4%.
